Molecules are shown by their SMILES. This is a selection; strong and weak results do not stand in their true shares. Records with an inconclusive call do not appear. The source made the active and inactive calls. Calls follow the shape of the dose curve; as a rule, active = well fitted inhibition curve with a large enough effect; inconclusive = small, poorly fitted or top-dose-only effect; inactive = no such curve, though single readings can be large or run the other way; tested in mouse RAW 264.7 cells.
% is scaled to controls: 0 for no effect and ±100 for the full control effect; potency is read from the fitted curve at half-maximal effect.

A short description of this test: qHTS for Inhibitors of Cell Surface uPA Generation. Also: nearly all actives have a fitted effect of over 55% in size. The following applies: cell surface uPA generation assay; series mostly up to 38.3 µM; activity change, negative = inhibition: at the top concentration. The method, boiled down:
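RAW 264.7 cells, 4000/well, given compound (1:5 dilutions, up to 38.3 uM final) and incubated 24 h at 37 C. Blocked uPA-dependent LF entry keeps ATP high; ATPlite luminescence read, 5 s exposure.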
For orientation: In qHTS, concentration-response curves come from the screen itself.
Consider `Cc1ccc2nc3c(c(C)c2c1)CC(C(Cl)Cl)S3` (configuration not stated), for which the “activity change, negative = inhibition” value was inactive: -10.4%.
For `Cc1ccc(OP(=O)(Nc2ccc([N+](=O)[O-])cn2)Oc2ccc(C)cc2)cc1`, the “activity change, negative = inhibition” value is inactive: 2.72%.
Take `CC(C)c1ccc(OP(=O)(Nc2ccccn2)Oc2ccccc2F)cc1` (configuration not stated): the “activity change, negative = inhibition” value was inactive: 8.49%.
On to `COC(=O)C1(C)COP(=O)(N2CCCCCC2)OC1` (configuration not stated), for which the “activity change, negative = inhibition” value is inactive: -0.313%.
Take `ClCCSc1nnc(-c2cccnc2)o1`: the “activity change, negative = inhibition” value is inactive: -0.181%.
As for `O=C(OC1CN2CCC1CC2)c1cccc2[nH]cnc12` (configuration not stated), the “activity change, negative = inhibition” value is inactive: -0.202%.
As for `CCN(CC)C(=S)SC(NC=O)C(Cl)(Cl)Cl` (configuration not stated), the “activity change, negative = inhibition” value is inactive: 5.26%.
On to `CC(C)NC(=O)NP(=O)(Oc1ccccc1)Oc1ccccc1`, for which the “activity change, negative = inhibition” value was inactive: 0.609%.
For the compound `O=[N+]([O-])c1cc([N+](=O)[O-])c(-c2ccn[nH]2)s1`, the Potency is active: 12.6 µM.
On to `O=C(OC1CN2CCC1CC2)C12CC3CC(CC(C3)C1)C2` (configuration not stated), for which the “activity change, negative = inhibition” value is inactive: -2.9%.
Take `Cc1cc(=O)[nH]c(N[N+](=O)[O-])n1`: the “activity change, negative = inhibition” value is inactive: 2.62%.
As to `Cc1c2c(nc3ccccc13)SC(C(Cl)Cl)C2` (configuration not stated), the “activity change, negative = inhibition” value is inactive: -16.8%.
In the case of `COc1ccc2nc(NP(=O)(c3ccccc3)c3ccccc3)sc2c1`, the “activity change, negative = inhibition” value is inactive: 2.9%.
Still for that read-out and setting: with `COc1cc(I)ccc1[As](=O)(O)O` the figure was inactive: -0.746%; with `O=P1(N(CCCl)CCCl)Nc2ccccc2N1`, inactive: -1.41%.
On the same count and under the same terms, with `O=P1(N(CCCl)CCCl)OCCCN1CCCl` (configuration not stated) the figure was inactive: -1.61%; with `COc1ccc(N/C(=N/P(=O)(N2CCOCC2)N2CCOCC2)N2CCOCC2)cc1`, inactive: 1.19%.
The same measure, in the same setting: with `O=[N+]([O-])c1cc(Oc2ccc([N+](=O)[O-])cc2C(F)(F)F)cc([N+](=O)[O-])c1` the figure was inactive: 3.14%; with `COP1(=S)c2c(C)nn(CCC#N)c2N=C(c2ccc(F)cc2)N1C` (configuration not stated), inactive: 1.51%; with `O=C(COc1ccccc1)OC1CN2CCC1CC2` (configuration not stated), inactive: 0.0152%.
For `O=C(Nc1ccncc1[N+](=O)[O-])c1ccc([N+](=O)[O-])cc1[N+](=O)[O-]`, the “activity change, negative = inhibition” value was inactive: -15.1%.
Regarding `CCOC(=O)c1ccc(NC(=O)C(C)(CCl)SC)cc1` (configuration not stated), the “activity change, negative = inhibition” value was inactive: -2.5%.
Still for that read-out and setting: for `O=C(OC1CN2CCC1CC2)c1cccc([N+](=O)[O-])c1` (configuration not stated) the value was inactive: -5.58%.
For `CCC(C)N(CC(C)C)C(=S)SC(NC(C)=O)C(Cl)(Cl)Cl` (configuration not stated), the “activity change, negative = inhibition” value was inactive: 3.41%.
With `CC1CCNP(=O)(N(CCCl)CCCl)O1` (configuration not stated), the “activity change, negative = inhibition” value was inactive: -2.46%.
Turning to `CCOC(=O)Nc1ccc([As](=O)(O)O)c(O)c1`, the “activity change, negative = inhibition” value is inactive: -0.791%.
As to `CCCCOc1ccc(C(=O)NCC2(N3CCCCC3)CCCCC2)cc1OC`, the “activity change, negative = inhibition” value was inactive: -2.08%.
As for `Cc1cc(SC(NC(=O)c2ccccc2)C(Cl)(Cl)Cl)nc(C(C)C)n1` (configuration not stated), the “activity change, negative = inhibition” value is inactive: 3.6%.
Same read-out and setting: with `CCOC(=O)Nc1cccc([As](=O)(O)O)c1` the figure was inactive: 2.19%; with `O=[N+]([O-])c1ccc(Nc2ccc(Oc3ccc([N+](=O)[O-])cc3[N+](=O)[O-])cc2)c([N+](=O)[O-])c1`, inactive: 4.2%; with `Cc1cc(SC(NC=O)C(Cl)(Cl)Cl)ncn1` (configuration not stated), inactive: 0.214%.
Regarding `O=P(Nc1ccccn1)(c1cccc2ccccc12)c1cccc2ccccc12`, the “activity change, negative = inhibition” value is inactive: -2.83%.

Values taken from PubChem BioAssay AID540303 (National Center for Advancing Translational Sciences (NCATS), 2011).
